Source: US20230165829A1, “FLAVAGLINE DERIVATIVES FOR INHIBITION OF KRAS ONCOGENE ACTIVATION” (KHR BIOTEC GMBH, priority 2018, published 2023)

Tested on: KRAS G12V
Experiment: NanoBit assay of KRAS GTP-loading (KRAS / CRAF-RBD interaction) in HeLa cells
Details: 100 nM compounds for 4 h, KRAS G12V transfected HeLa cells; similar results with KRAS WT + EGF (100 ng/ml, 30 min)

SMILES	inactivation of KRAS (inhibition of KRAS activation), relative luminescence vs DMSO
COc1cc(OC)c2c(c1)O[C@@]1(c3ccc(Br)cc3)[C@H](c3ccccc3)C[C@H](NC=O)[C@@]21O	inactivation of KRAS
COc1cc(OC)c2c(c1)O[C@@]1(c3ccc(Br)cc3)[C@H](c3cccc(F)c3)C[C@H](NC=O)[C@@]21O	inactivation of KRAS
